# scFv variants of Ab-14 (heavy chain) against a SARS-CoV-2 spike peptide

Target: peptide PDVDLGDISGINAS, taken from heptad repeat 2 (HR2) of SARS-CoV-2 spike.

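The starting antibody came from a phage panning campaign against this peptide. The variants were designed computationally from a first round of random CDR variants and then made and measured. Several design methods are mixed in this list. AlphaSeq pools MATa yeast showing the antibodies with MATalpha yeast showing the peptide. Pairs that bind mate more often; barcode pairs of the diploids are counted by sequencing. Scores were corrected for input abundance and mapped to Kd with protein pairs of known affinity run in the same pool. There are six technical replicates.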

The variants keep the light chain, the linker and the frameworks of Ab-14 (scFv order VH, three GGGGS repeats, VL).
VH: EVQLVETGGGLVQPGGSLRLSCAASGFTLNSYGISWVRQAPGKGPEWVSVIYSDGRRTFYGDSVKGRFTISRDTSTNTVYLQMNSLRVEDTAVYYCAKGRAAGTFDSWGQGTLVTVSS
VL: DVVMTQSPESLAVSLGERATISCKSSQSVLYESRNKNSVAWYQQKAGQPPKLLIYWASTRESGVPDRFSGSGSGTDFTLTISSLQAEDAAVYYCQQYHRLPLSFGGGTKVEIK

Variants are written as CDR1, CDR2 and CDR3 of the heavy chain (limits as in the source). Parent: GFTLNSYGIS, VIYSDGRRTFYGDSVK, GRAAGTFDS.
Variants here have more than six changes.
Kd is apparent (estimated from mating counts) and averaged on the log scale over replicates with a signal. Smaller is tighter.
Where no diploid with the target was found in any replicate, the entry reads "nd": below detection, most likely a poor binder, though not proof of it.
The authors averaged sequences with at least three values out of six and counted those with two or fewer as poor binders.
Three control strains display no target. For all heavy chain designs, 1% of the pairings with them gave a signal, with a median of 120 nM and one signal in twenty below 7.0 nM, so weak values seen in few replicates may be background.
Values of this round are not directly comparable with the first-round values of the same sequences.

Variant GFDLDEYGIS, VIYADGMRTYYADSVK, GNVAGTFDQ showed 480 pM (6 of 6 replicates).
Variant GFNLNEYGIS, VIYADGMRTFYADSVK, GEIAGTFDV showed 350 pM (6 of 6 replicates).
Variant GFDLNEYGIS, VIYADGMRTAYIDSVK, GETAGTFDQ showed 630 pM (6 of 6 replicates).
Variant GFDLNEYGIS, VIYADGMRTVYADDVK, GNVAGTFDV showed 180 pM (6 of 6 replicates).
Variant GFDLNEYGIS, VIYADGMRKAYADNVK, GNVAGTFDV showed 240 pM (6 of 6 replicates).
Variant GFSVEEYGIS, VIYADGRRVAYAKDVK, GMNFDGIVV showed nd (0 of 6 replicates).
Variant GFNIDEYGIS, VIYADGMRTAYSNAVK, GVVNGGTIS showed nd (0 of 6 replicates).
Variant GFDLDEYGIS, VIYADGVRTAYIDSVK, GENAGTFDV showed 14 nM (6 of 6 replicates).
Variant GFDLNEYGIS, VIYADGRRTAYSDSVK, GNNAGTFDI showed 740 pM (6 of 6 replicates).
Variant GFDIEKYGIS, VIYADGQRVSYDSSVK, GENAGYFMD showed nd (0 of 6 replicates).
Variant GFNLNEYGIS, VIYADGRRTFYADSVK, GENAGSFDI showed 1.2 nM (6 of 6 replicates).
Variant GFDLNEYGIS, VIYADGMRTFYADSVK, GEAAGTFDV showed 260 pM (6 of 6 replicates).
Variant GFDLDEYGIS, VIYADGMRTAYTDSVK, GNQAGTFDV showed 320 pM (6 of 6 replicates).
Variant GFDLDEYGIS, VIYADGRRTFYADSVK, GELAGTFDI showed 320 pM (6 of 6 replicates).
Variant GFDLDEYGIS, VIYADGQRTAYSDSVK, GGNAGTFDV showed 430 pM (6 of 6 replicates).
Variant GFDLNEYGIS, VIYADGRRSAYADSVK, GQLAGTFDV showed 250 pM (6 of 6 replicates).
Variant GFDLMEYGIS, VIYADGVRRAYSQSVK, GEGEDLYLD showed nd (0 of 6 replicates).
Variant GFDLNEYGIS, VIYADGMRTFYADSVK, GSEAGTFNM showed 290 pM (6 of 6 replicates).
Variant GFDLDEYGIS, VIYADGRRTAYADSVK, GQNAGTFDM showed 190 pM (6 of 6 replicates).
Variant GFDLDEYGIS, VIYADGMRTFYADDVK, GNQAGTFDV showed 1.2 nM (6 of 6 replicates).
Variant GFDIDEYGVS, VIYADGFRVAYAESVK, GLQQFGFTI showed nd (0 of 6 replicates).
Variant GFDVEDYGIS, VIYADGRRQQYAQKFK, GTIAGTFVD showed nd (0 of 6 replicates).
Variant GEDLDEYGIS, VIYADGRRVVYQDQVK, GELAGTFDQ showed 27 nM (1 of 6 replicates).
Variant GFDLDEYGIS, VIYADGMRTSYADSVK, GEVAGTFDL showed 830 pM (6 of 6 replicates).
Variant GFDLNEYGIS, VIYADGRRTAYADSVK, GEAAGTFDM showed 410 pM (6 of 6 replicates).
Variant GFDLNEYGIS, VIYADGVRSAYADSVK, GNNAGTFDV showed 390 pM (6 of 6 replicates).
Variant GFDLNEYGIS, VIYADGRRTFYSDSVK, GTVAGTFDL showed 280 pM (6 of 6 replicates).
Variant GFDLTEYGIS, VIYADGRRTQYQDAVK, GLNGGMLVV showed nd (0 of 6 replicates).
Variant GFDLNEYGIS, VIYADGKRTFYVDSVK, GENAGTFDV showed 630 pM (6 of 6 replicates).
Variant GFDLNEYGIS, VIYADGMRTAYTDSVK, GANAGTFDI showed 260 pM (6 of 6 replicates).
Variant GFDLDEYGIS, VIYADGMRTAYSDSVK, GNVAGTFDT showed 240 pM (6 of 6 replicates).
Variant GFDLNEYGIS, VIYADGMRTFYADDVK, GSNAGTFDV showed 14 nM (6 of 6 replicates).
Variant GNNLEEYGIS, VIYADGMRTAAVDSVK, GDNSGTVVV showed nd (0 of 6 replicates).
Variant GFALNEYGIS, VIYADGSRSAYIESVK, GVNNIDVNV showed nd (0 of 6 replicates).
Variant GFDLNEYGIS, VIYADGIRTAYADDVK, GNNAGTFDV showed 4.3 nM (6 of 6 replicates).
Variant GFNLNEYGIS, VIYADGRRTFYADSVK, GQQAGTFDV showed 190 pM (6 of 6 replicates).
Variant GFDLDEYGIS, VIYADGKRTFYQDSVK, GQNAGTFDQ showed 36 pM (5 of 6 replicates).
Variant GFDLNEYGIS, VIYADGKRTAYADSVK, GQVAGTFDI showed 1.7 nM (6 of 6 replicates).
Variant GFDLNEYGIS, VIYADGKRTFYADSVK, GQLAGTFDL showed 340 pM (6 of 6 replicates).
Variant GFHLNSYGKS, VIYADGRRTFYSDSVK, GRAYGTNKS showed nd (0 of 6 replicates).
Variant GFKLDEYGIS, VIYADGHRVAYSQKVK, GDNVGNMFE showed nd (0 of 6 replicates).
Variant GFDLDEYGIS, VIYADGSRTAYTDSVK, GNVAGTFDV showed 230 pM (6 of 6 replicates).
Variant GFNLNEYGIS, VIYADGRRTFYADSVK, GEAGGTFDV showed 1.9 nM (6 of 6 replicates).
Variant GFDLNEYGIS, VIYADGVRTFYADSVK, GETAGTFDQ showed 240 pM (6 of 6 replicates).
Variant GFDINEYGIS, VIYADGNRTMYQDQVK, GENGGSFVL showed nd (0 of 6 replicates).
Variant GFDLDEYGIS, VIYADGVRTAYADDVK, GNTAGTFDV showed 340 pM (6 of 6 replicates).
Variant GKSLDEYGIS, VIYADGARAFYANDVK, GNITDVFGK showed nd (0 of 6 replicates).

The opening 2 entries, copied out:

| CDR-H1 | CDR-H2 | CDR-H3 | apparent Kd | replicates with signal |
|---|---|---|---|---|
| GFDLDEYGIS | VIYADGMRTYYADSVK | GNVAGTFDQ | 480 pM | 6/6 |
| GFNLNEYGIS | VIYADGMRTFYADSVK | GEIAGTFDV | 350 pM | 6/6 |

The measurements come from Li et al. 2023 (doi:10.1038/s41467-023-39022-2) through the FLAb antibody collection.